# Laboratory results as given in US6884418B1, “Use of ligand-mimicking agents and anti-neoplastic drugs in cancer therapy” (Berlex Laboratories, Inc., priority 1989, dated 2005).
# Tested on: SKBR3 cells
# Experiment: MTT assay, SKBR3 cells
# Type: cell-based, human
# Conditions: carboplatin 16 μg, melphalan 20 μg
# Experimental: The MTT assay is generally used to assess cellular viability as a function of mitochondrial activity. The assay was used to examine effects of cisplatin with and without the c-erbB-2 monoclonal antibodies and was carried out as follows:
# MTT was added for 4 hours and the crystals dissolved with isopropanol/0.04N HCI/0.3% SDS.
smiles,measurement,value
O=P1(N(CCCl)CCCl)NCCCO1 (stereo not shown) [cytoxan],synergistic response of the drug combined with TAb 250,failed to show a synergistic response
